Several values for one entry are separate records, joined by “and”; a condition that tells them apart may be missing. Identical values can stand only once.
Tests used:
ALK2/ACVR1 = target: T1, ALK2/ACVR1 (Homo sapiens, UniProt Q04771); assay: HotSpot kinase assay; type: biochemical; settings: 10µM
T1 construct: purchased Reaction Biology Corporation

ERK1 = target: T2, ERK1 (Homo sapiens, UniProt P27361); assay: HotSpot kinase assay; type: biochemical; settings: 10µM
T2 construct: purchased Reaction Biology Corporation

PKN3/PRK3 = target: T3, PKN3/PRK3 (Homo sapiens, UniProt Q6P5Z2); assay: HotSpot kinase assay; type: biochemical; settings: 10µM
T3 construct: purchased Reaction Biology Corporation

PBK/TOPK = target: T4, PBK/TOPK (Homo sapiens, UniProt Q96KB5); assay: HotSpot kinase assay; type: biochemical; settings: 10µM
T4 construct: purchased Reaction Biology Corporation

CDK1/cyclin E = target: T5, CDK1/cyclin E (Homo sapiens, UniProt P06493); assay: HotSpot kinase assay; type: biochemical; settings: 10µM
T5 construct: purchased Reaction Biology Corporation

PKN1/PRK1 = target: T6, PKN1/PRK1 (Homo sapiens, UniProt Q16512); assay: HotSpot kinase assay; type: biochemical; settings: 10µM
T6 construct: purchased Reaction Biology Corporation

NLK = target: T7, NLK (Homo sapiens, UniProt Q9UBE8); assay: HotSpot kinase assay; type: biochemical; settings: 10µM
T7 construct: purchased Reaction Biology Corporation

PDGFRa = target: T8, PDGFRa (Homo sapiens, UniProt P16234); assay: HotSpot kinase assay; type: biochemical; settings: 10µM
T8 construct: purchased Reaction Biology Corporation

CDK3/cyclin E = target: T9, CDK3/cyclin E (Homo sapiens, UniProt Q00526); assay: HotSpot kinase assay; type: biochemical; settings: 10µM
T9 construct: purchased Reaction Biology Corporation

CDK3/cyclin E2 = target: T10, CDK3/cyclin E2 (Homo sapiens, UniProt Q00526); assay: HotSpot kinase assay; type: biochemical; settings: 10µM
T10 construct: purchased Reaction Biology Corporation

CAMK1b = target: T11, CAMK1b (Homo sapiens, UniProt Q6P2M8); assay: HotSpot kinase assay; type: biochemical; settings: 10µM
T11 construct: purchased Reaction Biology Corporation

p70S6Kb/RPS6KB2 = target: T12, p70S6Kb/RPS6KB2 (Homo sapiens, UniProt Q9UBS0); assay: HotSpot kinase assay; type: biochemical; settings: 10µM
T12 construct: purchased Reaction Biology Corporation

EPHA3 = target: T13, EPHA3 (Homo sapiens, UniProt P29320); assay: HotSpot kinase assay; type: biochemical; settings: 10µM
T13 construct: purchased Reaction Biology Corporation

TNK1 = target: T14, TNK1 (Homo sapiens, UniProt Q13470); assay: HotSpot kinase assay; type: biochemical; settings: 10µM
T14 construct: purchased Reaction Biology Corporation

p70S6K/RPS6KB1 = target: T15, p70S6K/RPS6KB1 (Homo sapiens, UniProt P23443); assay: HotSpot kinase assay; type: biochemical; settings: 10µM
T15 construct: purchased Reaction Biology Corporation

PKCb2 = target: T16, PKCb2 (Homo sapiens, UniProt P05771); assay: HotSpot kinase assay; type: biochemical; settings: 10µM
T16 construct: purchased Reaction Biology Corporation

STK32C/YANK3 = target: T17, STK32C/YANK3 (Homo sapiens, UniProt Q86UX6); assay: HotSpot kinase assay; type: biochemical; settings: 10µM
T17 construct: purchased Reaction Biology Corporation

CSK = target: T18, CSK (Homo sapiens, UniProt P41240); assay: HotSpot kinase assay; type: biochemical; settings: 10µM
T18 construct: purchased Reaction Biology Corporation

MYLK3 = target: T19, MYLK3 (Homo sapiens, UniProt Q32MK0); assay: HotSpot kinase assay; type: biochemical; settings: 10µM
T19 construct: purchased Reaction Biology Corporation

CAMK2g = target: T20, CAMK2g (Homo sapiens, UniProt Q13555); assay: HotSpot kinase assay; type: biochemical; settings: 10µM
T20 construct: purchased Reaction Biology Corporation

PAK6 = target: T21, PAK6 (Homo sapiens, UniProt Q9NQU5); assay: HotSpot kinase assay; type: biochemical; settings: 10µM
T21 construct: purchased Reaction Biology Corporation

MLK3/MAP3K11 = target: T22, MLK3/MAP3K11 (Homo sapiens, UniProt Q16584); assay: HotSpot kinase assay; type: biochemical; settings: 10µM
T22 construct: purchased Reaction Biology Corporation

TRPM7/CHAK1 = target: T23, TRPM7/CHAK1 (Homo sapiens, UniProt Q96QT4); assay: HotSpot kinase assay; type: biochemical; settings: 10µM
T23 construct: purchased Reaction Biology Corporation

EIF2AK1 = target: T24, EIF2AK1 (Homo sapiens, UniProt Q9BQI3); assay: HotSpot kinase assay; type: biochemical; settings: 10µM
T24 construct: purchased Reaction Biology Corporation

KHS/MAP4K5 = target: T25, KHS/MAP4K5 (Homo sapiens, UniProt Q9Y4K4); assay: HotSpot kinase assay; type: biochemical; settings: 10µM
T25 construct: purchased Reaction Biology Corporation

DCAMKL2 = target: T26, DCAMKL2 (Homo sapiens, UniProt Q8N568); assay: HotSpot kinase assay; type: biochemical; settings: 10µM
T26 construct: purchased Reaction Biology Corporation

AKT1 = target: T27, AKT1 (Homo sapiens, UniProt P31749); type: biochemical; settings: 10µM
T27 construct: purchased Reaction Biology Corporation

FGR = target: T28, FGR (Homo sapiens, UniProt P09769); assay: HotSpot kinase assay; type: biochemical; settings: 10µM
T28 construct: purchased Reaction Biology Corporation

DCAMKL1 = target: T29, DCAMKL1 (Homo sapiens, UniProt O15075); assay: HotSpot kinase assay; type: biochemical; settings: 10µM
T29 construct: purchased Reaction Biology Corporation

PKAcb = target: T30, PKAcb (Homo sapiens, UniProt P22694); assay: HotSpot kinase assay; type: biochemical; settings: 10µM
T30 construct: purchased Reaction Biology Corporation

HSV-2(G) = assay: HSV plaque assay, primary vaginal cells; type: cell-based
PDK4/PDHK4 = target: T31, PDK4/PDHK4 (Homo sapiens, UniProt Q16654); assay: HotSpot kinase assay; type: biochemical; settings: 10µM
T31 construct: purchased Reaction Biology Corporation

SNARK/NUAK2 = target: T32, SNARK/NUAK2 (Homo sapiens, UniProt Q9H093); assay: HotSpot kinase assay; type: biochemical; settings: 10µM
T32 construct: purchased Reaction Biology Corporation

AMPK(A2/B2/G1) = target: T33, AMPK(A2/B2/G1) (Homo sapiens, UniProt P54646); assay: HotSpot kinase assay; type: biochemical; settings: 10µM
T33 construct: purchased Reaction Biology Corporation

CDK2/cyclin A1 = target: T34, CDK2/cyclin A1 (Homo sapiens, UniProt P24941); assay: HotSpot kinase assay; type: biochemical; settings: 10µM
T34 construct: purchased Reaction Biology Corporation

EPHA6 = target: T35, EPHA6 (Homo sapiens, UniProt Q9UF33); assay: HotSpot kinase assay; type: biochemical; settings: 10µM
T35 construct: purchased Reaction Biology Corporation

MAK = target: T36, MAK (Homo sapiens, UniProt P20794); assay: HotSpot kinase assay; type: biochemical; settings: 10µM
T36 construct: purchased Reaction Biology Corporation

BRAF = target: T37, BRAF (Homo sapiens, UniProt P15056); assay: HotSpot kinase assay; type: biochemical; settings: 10µM
T37 construct: purchased Reaction Biology Corporation

WEE1 = target: T38, WEE1 (Homo sapiens, UniProt P30291); assay: HotSpot kinase assay; type: biochemical; settings: 10µM
T38 construct: purchased Reaction Biology Corporation

BMPR2 = target: T39, BMPR2 (Homo sapiens, UniProt Q13873); assay: HotSpot kinase assay; type: biochemical; settings: 10µM
T39 construct: purchased Reaction Biology Corporation

VRK2 = target: T40, VRK2 (Homo sapiens, UniProt Q86Y07); assay: HotSpot kinase assay; type: biochemical; settings: 10µM
T40 construct: purchased Reaction Biology Corporation

TRKB = target: T41, TRKB (Homo sapiens, UniProt Q16620); assay: HotSpot kinase assay; type: biochemical; settings: 10µM
T41 construct: purchased Reaction Biology Corporation

TYK2 = target: T42, TYK2 (Homo sapiens, UniProt P29597); assay: HotSpot kinase assay; type: biochemical; settings: 10µM
T42 construct: purchased Reaction Biology Corporation

`CO[C@@H]1[C@H](N(C)C(=O)CCC(=O)NCc2cn(CCCS(=O)(=O)O)nn2)C[C@H]2O[C@]1(C)n1c3ccccc3c3c4c(c5c6ccccc6n2c5c31)C(=O)NC4` [CIMSS] was tested, and the “% Enzyme Activity (relative to DMSO controls)” value (ALK2/ACVR1) was 71.88%, the “% Enzyme Activity (relative to DMSO controls)” value (ERK1) was 90.38% and the “% Enzyme Activity (relative to DMSO controls)” value (PKN3/PRK3) was 14.75%. The “% Enzyme Activity (relative to DMSO controls)” value (PBK/TOPK) was 67.76%, the “% Enzyme Activity (relative to DMSO controls)” value (CDK1/cyclin E) was 17.80% and the “% Enzyme Activity (relative to DMSO controls)” value (PKN1/PRK1) was 2.15%. For the same compound, the “% Enzyme Activity (relative to DMSO controls)” value (NLK) was 68.44%, the “% Enzyme Activity (relative to DMSO controls)” value (PDGFRa) was 5.54% and the “% Enzyme Activity (relative to DMSO controls)” value (CDK3/cyclin E) was 12.85%. For the same compound, the “% Enzyme Activity (relative to DMSO controls)” value (CDK3/cyclin E2) was 20.66%, the “% Enzyme Activity (relative to DMSO controls)” value (CAMK1b) was 57.60% and the “% Enzyme Activity (relative to DMSO controls)” value (p70S6Kb/RPS6KB2) was 3.26%. For the same compound, the “% Enzyme Activity (relative to DMSO controls)” value (EPHA3) was 37.82%, the “% Enzyme Activity (relative to DMSO controls)” value (TNK1) was 2.88% and the “% Enzyme Activity (relative to DMSO controls)” value (p70S6K/RPS6KB1) was 4.80%. The “% Enzyme Activity (relative to DMSO controls)” value (PKCb2) was 1.66%, the “% Enzyme Activity (relative to DMSO controls)” value (STK32C/YANK3) was 20.31% and the “% Enzyme Activity (relative to DMSO controls)” value (CSK) was 2.95%. For the same compound, the “% Enzyme Activity (relative to DMSO controls)” value (MYLK3) was 64.65%, the “% Enzyme Activity (relative to DMSO controls)” value (CAMK2g) was 0.85% and the “% Enzyme Activity (relative to DMSO controls)” value (PAK6) was 8.98%. For the same compound, the “% Enzyme Activity (relative to DMSO controls)” value (MLK3/MAP3K11) was -0.81% and -1.50%, the “% Enzyme Activity (relative to DMSO controls)” value (TRPM7/CHAK1) was 91.48% and the “% Enzyme Activity (relative to DMSO controls)” value (EIF2AK1) was 81.15%. The “% Enzyme Activity (relative to DMSO controls)” value (KHS/MAP4K5) was 5.14%, the “% Enzyme Activity (relative to DMSO controls)” value (DCAMKL2) was 86.26% and the “% Enzyme Activity (relative to DMSO controls)” value (AKT1) was 23.61%. For the same compound, the “% Enzyme Activity (relative to DMSO controls)” value (FGR) was 1.11%, the “% Enzyme Activity (relative to DMSO controls)” value (DCAMKL1) was 80.77% and the “% Enzyme Activity (relative to DMSO controls)” value (PKAcb) was 1.23%. The “viral plaque numbers relative to the DMSO controls” value (HSV-2(G); dose 0.1, replicates (Fig 3a source data)) was 74% and 73.4% and 64% and 57%, the “viral plaque numbers relative to the DMSO controls” value (HSV-2(G); dose 1, replicates (Fig 3a source data)) was 70% and 69% and 45% and 52% and the “viral plaque numbers relative to the DMSO controls” value (HSV-2(G); dose 10, replicates (Fig 3a source data)) was 26.8% and 30.9% and 10% and 14.36%. For the same compound, the “viral plaque numbers relative to the DMSO controls” value (HSV-2(G); dose 50, replicates (Fig 3a source data)) was 30.9% and 30.2% and 14% and 25%, the “% Enzyme Activity (relative to DMSO controls)” value (PDK4/PDHK4) was 92.98% and the “% Enzyme Activity (relative to DMSO controls)” value (SNARK/NUAK2) was 1.92%. The “% Enzyme Activity (relative to DMSO controls)” value (AMPK(A2/B2/G1)) was 0.23%, the “% Enzyme Activity (relative to DMSO controls)” value (CDK2/cyclin A1) was 7.85% and the “% Enzyme Activity (relative to DMSO controls)” value (EPHA6) was 33.33%. For the same compound, the “% Enzyme Activity (relative to DMSO controls)” value (MAK) was 12.70%, the “% Enzyme Activity (relative to DMSO controls)” value (BRAF) was 131.61% and the “% Enzyme Activity (relative to DMSO controls)” value (WEE1) was 43.28%. For the same compound, the “% Enzyme Activity (relative to DMSO controls)” value (BMPR2) was 49.89%, the “% Enzyme Activity (relative to DMSO controls)” value (VRK2) was 81.67% and the “% Enzyme Activity (relative to DMSO controls)” value (TRKB) was 1.73%. For the same compound, the “% Enzyme Activity (relative to DMSO controls)” value (TYK2) was 5.86%.
